Laboratory results published in patent US8580829B2 (Boehringer Ingelheim International GmbH, priority 2010, dated 2013).

Protein sequences, listed by entry. Tags and fused reporters are not part of them. Lines headed by an entry give the natural chain unless they say otherwise; changes in a name come on top.
UniProt P20292: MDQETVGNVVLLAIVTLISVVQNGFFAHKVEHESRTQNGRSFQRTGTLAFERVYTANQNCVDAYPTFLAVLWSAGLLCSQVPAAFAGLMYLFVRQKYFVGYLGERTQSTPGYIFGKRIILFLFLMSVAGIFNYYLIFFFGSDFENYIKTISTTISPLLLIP

Molecular target: T1, recombinant human FLAP protein (Homo sapiens, UniProt P20292)
T1 construct: made in house; host or cells: Sf9 insect cells (100,000 x g membrane fraction)
Assay: FLAP binding assay (Scintillation Proximity Assay, displacement of [125I]L-691,831)
Details: recombinant human FLAP membranes, [125I]L-691,831 probe; read-out: FLAP SPA IC50
Procedure: Cell pellets produced from sf9 insect cells expressing recombinant human FLAP protein are resuspended in buffer A [15 mM Tris-HCl (pH 7.5), 2 mM MgCl2, 0.3 mM EDTA, 1 mM PMSF]. The cells are lysed with a Dounce homogenizer and the material is centrifuged at 10,000×g for 10 minutes. The supernatant is then collected and centrifuged at 100,000×g for 60 minutes. To prepare membrane protein for an assay, an aliquot of the 100,000×g pellet is resuspended in 1 ml of buffer A, Dounce homogenized, and finally subjected to polytron mixing (30 seconds). Membrane protein (25 μl, 5 μg) is mixed with WGA SPA beads (Amersham) and stirred for 1 h.

IC50 | Structure (SMILES)
2.7 nM | CC(C)(C)NC(=O)Cn1cc(-c2nc(C3(c4ccc(-c5cnc(N)nc5)cc4)CCC3)no2)cn1 [Example 207, 2-[4-(3-{1-[4-(2-Amino-pyrimidin-5-yl)-phenyl]-cyclobutyl}-[1,2,4]oxadiazol-5-yl)-pyrazol-1-yl]-N-tert-butyl-acetamide]
1.9 nM | Nc1ncc(-c2ccc(C3(c4noc(-c5cnn(C6COC6)c5)n4)CCC3)cc2)cn1 [Example 89, 5-(4-{1-[5-(1-Oxetan-3-yl-1H-pyrazol-4-yl)-1,2,4-oxadiazol-3-yl]-cyclobutyl}-phenyl)-pyrimidin-2-ylamine]
20 nM | Nc1ncc(-c2ccc(C3(c4noc(N)n4)CCC3)cc2)cn1 [Example 15, 5-{4-[1-(5-Amino-1,2,4-oxadiazol-3-yl)-cyclobutyl]-phenyl}-pyrimidin-2-ylamine]
1.1 nM | CC(C)(C)NC(=O)Cn1cc(-c2nc(C3(c4ccc(-c5cnc(N)nc5)cc4)CCC3)no2)cn1 [Example 142, 2-[4-(3-{1-[4-(2-Amino-pyrimidin-5-yl)-phenyl]-cyclobutyl}-1,2,4-oxadiazol-5-yl)-pyrazol-1-yl]-N-tert-butyl-acetamide]
